SMILES strings stand for the structures. This is a selection; strong and weak results do not stand in their true shares. Some structures show a salt or complex split into parts, the way the source records it. Calls of active or inactive are those of the source.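 How the source made its calls: active means GFP response versus DMSO above a set limit, roughly screen mean plus 3 SD (cut at about 180% in these data); inconclusive means fewer than 70 cells counted for a yeast strain; inactive means the rest.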

This note sets out measurements from PubChem BioAssay AID2016 (NMMLSC, 2009).

The experiment in a line: TOR pathway GLN3 branch reporter MEP2-GFP changes – S. cerevisiae, multiplex flow cytometry, MLPCN library, primary screen (AID 2016).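 Further: median GFP fluorescence of the barcode-gated MEP2-GFP cells per well.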 The note with it: S. cerevisiae MEP2-GFP strain, 3 h, at 10 µM, hits give high values, 100% = DMSO control level.
In the case of `Cc1cc(C)cc(OP(C)(=O)Nc2cccc(C(F)(F)F)c2)c1` (centres undefined), the GFP response vs DMSO was inactive: 103%. The same measure for `COc1ccc(OP(C)(=O)Nc2ccccc2Br)cc1` (centres undefined): inactive: 95.7%; for `COc1ccccc1OP(C)(=O)Nc1ccc(C)c(C)c1` (centres undefined): inactive: 95.8%; for `Cc1nc2ccc3ccccc3c2o1.O=[N+]([O-])c1cc([N+](=O)[O-])c(O)c([N+](=O)[O-])c1`: inactive: 104%. On to `CP(=O)(OCCOc1ccccc1)OCCOc1ccccc1`, for which the GFP response vs DMSO is inactive: 98%. As to `CP(=O)(Nc1ccc(Cl)cc1Cl)Oc1ccccc1` (centres undefined), the GFP response vs DMSO was inactive: 93.2%.

Consider `COc1ccccc1OP(C)(=O)Nc1ccc(Br)cc1` (centres undefined), for which the GFP response vs DMSO was inactive: 100%. The same measure for `CN(C)CCOC(=O)C(O)(c1ccccc1)C1CCCC1` (centres undefined): inactive: 108%; for `COc1ccc(OP(C)(=O)Nc2ccccn2)cc1` (centres undefined): inactive: 107%; for `O=[N+]([O-])c1cc([N+](=O)[O-])c(Nc2ccccn2)c([N+](=O)[O-])c1`: inactive: 104%. `Cc1c(NP(C)(=O)Oc2ccc(C(C)C)cc2)c(=O)n(-c2ccccc2)n1C` (centres undefined): the GFP response vs DMSO was inactive: 103%. The same measure for `CCc1ccc(OP(C)(=O)O)cc1`: inactive: 117%; for `COc1ccccc1OP(C)(=O)Nc1ccc(C)cc1C` (centres undefined): inactive: 100%. The same measure for `CP(=O)(Nc1ccccn1)Oc1ccccc1` (centres undefined): inactive: 106%. The figure for `COc1ccc(OP(C)(=O)Nc2ccc(Br)cc2)cc1` (centres undefined) is inactive: 81.7%; for `CCN(CC)CC(O)COC(=O)C(O)(c1ccccc1)C1CCCCC1` (centres undefined) it is inactive: 97.9%; for `CCc1ccc(OP(C)(=O)Nc2cccnc2)cc1` (centres undefined) it is inactive: 106%. Take `CP(=O)(Oc1ccccc1)N1CCOC1=O` (centres undefined): the GFP response vs DMSO is inactive: 99.8%. The figure for `O=C(OCCCN1CCCC1)C(O)(c1ccccc1)C1CCCCC1` (centres undefined) is inactive: 102%. The same measure for `COc1ccccc1OP(C)(=O)Nc1c(C)n(C)n(-c2ccccc2)c1=O` (centres undefined): inactive: 80.4%; for `CP(=O)(Nc1ccc(Cl)cc1)Oc1ccc(F)cc1` (centres undefined): inactive: 91.7%; for `CC(C)(C)c1ccc(OP(C)(=O)O)cc1`: inactive: 104%. On to `COc1ccccc1OP(C)(=O)Nc1ccccc1Br` (centres undefined), for which the GFP response vs DMSO is inactive: 110%. The figure for `CN(C)C(=O)c1c([N+](=O)[O-])cc([N+](=O)[O-])cc1[N+](=O)[O-]` is inactive: 94.6%. The figure for `Nc1ccc2c(ccc3cccnc32)n1.O=[N+]([O-])c1cc([N+](=O)[O-])c(O)c([N+](=O)[O-])c1` is inactive: 101%. The figure for `CP(=O)(OC12CC3CC(CC(C3)C1)C2)OC12CC3CC(CC(C3)C1)C2` is inactive: 99.6%. For the compound `CCOC(=O)c1ccc(NP(C)(=O)Oc2ccc(Cl)cc2)cc1` (centres undefined), the GFP response vs DMSO was inactive: 104%. The figure for `COc1ccc(OP(C)(=O)Nc2cccc(Br)c2)cc1` (centres undefined) is inactive: 110%. Turning to `COc1ccc(NP(C)(=O)Oc2ccccc2OC)cc1` (centres undefined), the GFP response vs DMSO is inactive: 97.7%. The same measure for `CN(C)CCOC(=O)C(O)(c1ccccc1)C1CCCCC1` (centres undefined): inactive: 104%; for `O=[N+]([O-])c1cc([N+](=O)[O-])c(NCC2CCS(=O)(=O)C2)c([N+](=O)[O-])c1` (centres undefined): inactive: 111%; for `O=[N+]([O-])c1ccc(OP2(=O)COCCO2)cc1` (centres undefined): inactive: 102%.

In the case of `CP(=O)(Nc1ccc(SC(F)(F)F)cc1)Oc1ccc(F)cc1` (centres undefined), the GFP response vs DMSO was inactive: 104%. The same measure for `CCOP(C)(=S)SCC(=O)NC(C)(CC)C(=O)O` (centres undefined): inactive: 103%; for `CP(=O)(Nc1ccc2c(c1)OCCO2)Oc1ccccc1` (centres undefined): inactive: 93.2%. Regarding `Cc1ccccc1NP(C)(=O)Nc1ccccc1C`, the GFP response vs DMSO is inactive: 99%. The same measure for `CC(C)c1ccc(OP(C)(=O)Nc2ccc(SC(F)(F)F)cc2)cc1` (centres undefined): inactive: 108%; for `CP(=O)(Nc1ccccc1F)Oc1ccccc1` (centres undefined): inactive: 94.2%. In the case of `O=C(OCCN1CCN(CCOCc2ccccc2)CC1)C(O)(c1ccccc1)c1ccccc1`, the GFP response vs DMSO was inactive: 98.5%. The same measure for `O=C(OC1CN2CCC1CC2)c1ccc([N+](=O)[O-])cc1` (centres undefined): inactive: 98.1%. The figure for `COc1ccc2c(c1O)-c1c(O)c(OC)cc3c1[C@H](C2)[N+](C)(C)CC3.O=[N+]([O-])c1cc([N+](=O)[O-])c([O-])c([N+](=O)[O-])c1[O-]` is inactive: 96.1%. The same measure for `COc1ccc(OP(C)(=O)Nc2ccc(SC(F)(F)F)cc2)cc1` (centres undefined): inactive: 94.2%; for `CCOC(=O)c1ccc(NP(C)(=O)Oc2ccc(F)cc2)cc1` (centres undefined): inactive: 106%; for `CCN(CC)CCCOC(=O)C(O)(c1ccccc1)C1CCCCC1` (centres undefined): inactive: 109%. As to `O=[N+]([O-])c1cc([N+](=O)[O-])c(OC2CCCCC2O)c([N+](=O)[O-])c1` (centres undefined), the GFP response vs DMSO is inactive: 101%.

As to `CCCCCOc1ccc(NP(C)(=O)Oc2ccc(Cl)cc2Cl)cc1` (centres undefined), the GFP response vs DMSO was inactive: 103%. The figure for `CP(=O)(Nc1ccccc1)Oc1ccc(F)cc1` (centres undefined) is inactive: 103%; for `O=C(O)c1cccc(Nc2c([N+](=O)[O-])cc([N+](=O)[O-])cc2[N+](=O)[O-])c1` it is inactive: 104%; for `CC1=NCCc2c1[nH]c1ccccc21.O=[N+]([O-])c1cc([N+](=O)[O-])c(O)c([N+](=O)[O-])c1` it is inactive: 109%. As for `COc1ccccc1OP(C)(=O)Nc1cccc(Br)c1` (centres undefined), the GFP response vs DMSO is inactive: 101%. Take `Cc1cc(C)cc(OP(C)(=O)Nc2ccc(C)cc2C)c1` (centres undefined): the GFP response vs DMSO is inactive: 102%.

In the case of `CCOC(=O)c1ccc(NP(C)(=O)Oc2cc(C)cc(C)c2)cc1` (centres undefined), the GFP response vs DMSO is inactive: 112%. The figure for `CP(=O)(Nc1cccc(Br)c1)Oc1ccccc1` (centres undefined) is inactive: 103%; for `Cc1cc(C)cc(OP(C)(=O)Nc2ccccn2)c1` (centres undefined) it is inactive: 96.7%. Turning to `Cc1ccc(C)c(NP(C)(=O)Oc2ccccc2)c1` (centres undefined), the GFP response vs DMSO is inactive: 102%. On to `O=[N+]([O-])c1cc([N+](=O)[O-])c(-n2nnc3ccccc32)c([N+](=O)[O-])c1`, for which the GFP response vs DMSO was inactive: 93.6%. `O=[N+]([O-])c1cc([N+](=O)[O-])c(-c2cnn(-c3ccccc3)c2)c([N+](=O)[O-])c1`: the GFP response vs DMSO is inactive: 88%. As for `Cc1nc2ccc3ccccc3c2s1.O=[N+]([O-])c1cc([N+](=O)[O-])c(O)c([N+](=O)[O-])c1`, the GFP response vs DMSO is inactive: 97.1%. Take `CCOC(=O)C(CC)C1=NC(C)(C)Cc2ccccc21.O=[N+]([O-])c1cc([N+](=O)[O-])c(O)c([N+](=O)[O-])c1` (centres undefined): the GFP response vs DMSO was inactive: 98.8%.

For `O=[N+]([O-])c1cc([N+](=O)[O-])c(Nc2nnnn2CCO)c([N+](=O)[O-])c1`, the GFP response vs DMSO was inactive: 98.4%.

Take `CC1=C2N=C(C=C3N=C(C(C)=C4[N-][C@@](C)([C@@H]5N=C1[C@](C)(CCC(=O)NC[C@@H](C)OP(=O)([O-])O[C@H]1[C@@H](O)[C@@H](n6cnc7cc(C)c(C)cc76)O[C@@H]1CO)[C@H]5CC(N)=O)[C@@](C)(CC(N)=O)[C@@H]4CCC(N)=O)[C@@](C)(CC(N)=O)[C@@H]3CCC(N)=O)C(C)(C)[C@@H]2CCC(N)=O.[C-]#N.[Co+3]`: the GFP response vs DMSO was inactive: 88%. The figure for `CN1CCCCC1COC(=O)C1(O)c2ccccc2CCc2ccccc21` (centres undefined) is inactive: 92.9%. The figure for `COc1ccccc1OP(C)(=O)Nc1c(C)cccc1C` (centres undefined) is inactive: 99.5%; for `CP(=O)(Nc1ccc(SC(F)(F)F)cc1)Oc1ccccc1` (centres undefined) it is inactive: 107%. The figure for `CCCOc1ccc(NP(C)(=O)Oc2ccc(Cl)cc2)cc1` (centres undefined) is inactive: 101%; for `CP(=S)(Nn1cnnc1)Oc1ccccc1` (centres undefined) it is inactive: 103%. For the compound `COc1ccccc1OP(C)(=O)Nc1ccccc1` (centres undefined), the GFP response vs DMSO was inactive: 95.6%. With `CP(=O)(Nc1ccccc1Br)Oc1ccccc1` (centres undefined), the GFP response vs DMSO was inactive: 103%. The figure for `CP(=O)(Oc1ccccc1)OC(c1ccccc1)C(F)(F)F` (centres undefined) is inactive: 99.2%; for `CP(=O)(Nc1ccc(SC(F)(F)F)cc1)Oc1ccc(Cl)cc1` (centres undefined) it is inactive: 103%; for `Cc1cccc(C)c1OP(C)(=O)Nc1ccc(SC(F)(F)F)cc1` (centres undefined) it is inactive: 97.6%.

Turning to `Cc1cc(C)cc(OP(C)(=O)Nc2ccc(SC(F)(F)F)cc2)c1` (centres undefined), the GFP response vs DMSO was inactive: 111%. The figure for `CCc1ccc(OP(C)(=O)N2CCN(c3ccc([N+](=O)[O-])cc3)CC2)cc1` (centres undefined) is inactive: 89.5%; for `CP(=O)(NC(=O)Nc1ccccc1)Oc1ccccc1` (centres undefined) it is inactive: 101%. As for `CCOP(C)(=S)SCC(=O)NC(C)C(=O)O` (centres undefined), the GFP response vs DMSO was inactive: 104%. The same measure for `O=[N+]([O-])c1cc([N+](=O)[O-])c(O)c([N+](=O)[O-])c1.c1ccc(Oc2ccncc2)cc1`: inactive: 102%. The figure for `CCOC(=O)c1ccc(NP(C)(=O)Oc2ccc(OC)cc2)cc1` (centres undefined) is inactive: 93.9%. For `CP(=O)(Nc1ccccn1)Oc1ccc(Cl)cc1` (centres undefined), the GFP response vs DMSO is inactive: 92.6%. Turning to `CCN(CC)CCCOC(=O)C(O)(c1ccccc1)c1ccccc1`, the GFP response vs DMSO was inactive: 101%. The figure for `O=[N+]([O-])c1cc([N+](=O)[O-])c(Nc2cccnc2)c([N+](=O)[O-])c1` is inactive: 88.8%. On to `Cc1cccc(C)c1OP(C)(N)=O` (centres undefined), for which the GFP response vs DMSO was inactive: 100%. The figure for `CC(C)(C)c1ccc(OP(C)(=O)Nc2ccc(SC(F)(F)F)cc2)cc1` (centres undefined) is inactive: 101%; for `O=[N+]([O-])c1ccc2c(c1)C=Nc1ccccc1O2` it is inactive: 107%.

For the compound `CCOC(=O)c1ccc(NP(C)(=O)Oc2ccccc2)cc1` (centres undefined), the GFP response vs DMSO was inactive: 105%. The same measure for `Cc1ccc(NP(C)(=O)Oc2ccccc2)c(C)c1` (centres undefined): inactive: 126%. For the compound `COc1ccccc1OP(C)(=O)Nc1ccc(C)cc1` (centres undefined), the GFP response vs DMSO is inactive: 90.3%. `COc1ccc(OP(C)(=O)Nc2cccc(F)c2)cc1` (centres undefined): the GFP response vs DMSO was inactive: 99.2%. The figure for `COc1ccccc1OP(C)(=O)Nc1cc(Cl)ccc1C` (centres undefined) is inactive: 110%. `Cc1cc(C)cc(OP(C)(N)=O)c1` (centres undefined): the GFP response vs DMSO is inactive: 103%.
